Reference: ChEMBL document CHEMBL4725451, “Discovery of Tricyclic Xanthines as Agonists of the Cannabinoid-Activated Orphan G-Protein-Coupled Receptor GPR18” (ACS Med Chem Lett, 2020)

By UniProt entry, the sequences of proteins in these tests, tags left out. Where a name states a change or a piece, a line headed by the entry shows the natural chain unless it says otherwise.
UniProt Q9Y2T6: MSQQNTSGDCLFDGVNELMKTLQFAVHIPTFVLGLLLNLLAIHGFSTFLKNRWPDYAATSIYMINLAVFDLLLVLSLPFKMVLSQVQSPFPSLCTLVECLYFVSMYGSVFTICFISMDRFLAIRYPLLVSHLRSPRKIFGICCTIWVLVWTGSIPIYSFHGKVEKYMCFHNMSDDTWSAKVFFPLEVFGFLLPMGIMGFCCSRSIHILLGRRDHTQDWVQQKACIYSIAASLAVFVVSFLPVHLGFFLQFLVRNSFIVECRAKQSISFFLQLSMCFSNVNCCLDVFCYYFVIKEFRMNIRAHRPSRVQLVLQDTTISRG

Key:
[1] = target: T1, N-arachidonyl glycine receptor (Homo sapiens) (UniProt Q14330); experiment: Agonist activity at Prolink1-tagged human GPR18 receptor expressed in CHO cells assessed as induction of beta-arrestin recruitment at 10 uM after 90 mins by beta-galactosidase based topcount luminescence analysis relative to control; format: cell-based
T1 sequence (whole entry): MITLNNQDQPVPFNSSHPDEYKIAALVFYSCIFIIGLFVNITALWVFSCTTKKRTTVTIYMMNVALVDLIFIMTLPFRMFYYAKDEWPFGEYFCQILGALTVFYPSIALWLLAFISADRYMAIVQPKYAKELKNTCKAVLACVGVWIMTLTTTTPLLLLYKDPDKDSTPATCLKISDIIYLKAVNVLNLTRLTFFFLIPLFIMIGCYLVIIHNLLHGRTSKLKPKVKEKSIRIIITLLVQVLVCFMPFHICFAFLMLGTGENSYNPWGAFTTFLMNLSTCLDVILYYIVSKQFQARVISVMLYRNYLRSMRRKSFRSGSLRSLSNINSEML
Outline: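 CHO cells stably expressing human GPR18, β-arrestin enzyme-complementation assay with luminescence read-out. Test compound at 10 μM single concentration; signal normalized to that of 10 μM Δ9-THC.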

[2] = target: T2, G-protein coupled receptor 55 (Homo sapiens, UniProt Q9Y2T6); experiment: Antagonist activity at Prolink1-tagged human GPR55 receptor expressed in CHO cells assessed as inhibition of lysophosphatidylinositol-induced beta arrestin recruitment at 10 uM after 90 mins by beta-galactosidase based topcount luminescence analysis relative to control; format: functional, cell-based
Outline: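 GPR55-expressing CHO cells, β-arrestin complementation luminescence. Percent inhibition by test compound at 10 μM of the response to 1 μM LPI.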

[3] = target: T2, G-protein coupled receptor 55; experiment: Agonist activity at Prolink1-tagged human GPR55 receptor expressed in CHO cells assessed as induction of beta-arrestin recruitment at 10 uM after 90 mins by beta-galactosidase based topcount luminescence analysis relative to control; format: cell-based
Outline: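 CHO cells stably expressing GPR55, β2-arrestin recruitment detected by enzyme complementation and luminescence. Compounds tested at 10 μM; effect normalized to signal from 1 μM LPI.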

SMILES | Activity [1] [%] | inhibition [2] [%] | Activity [3] [%]
C=C(C)[C@@H]1CCC(C)=C[C@H]1c1c(O)cc(O)cc1CCCCC | -50 |  | 
CCCCC/C=C\C/C=C\C/C=C\C/C=C\CCCC(=O)NCC(=O)O [ARACHIDONOYL GLYCINE] | 10 |  | 
Cn1c(=O)c2c(nc3n2CCCCN3CCc2c[nH]c3ccccc23)n(C)c1=O |  | 21 | 38
Cn1c(=O)c2c(nc3n2CCN3CCc2c[nH]c3ccccc23)n(C)c1=O |  | 27 | 20
